System: chlorine-induced mortality
Assay: Chlorine-induced mortality model in rabbits

CC(=N)NCCSCC[C@H](N)C(=O)O
protection from chlorine-induced mortality (survival) (chlorine at LD50 dose (150 ppm for 20 minutes), treated 1 hour after end of exposure, followed 24 hours, FIG. 10A): complete protection from chlorine-induced mortality
severity of ALI as measured by SpO2/FiO2 ratios (rabbits that survived 24 hours, vehicle-treated versus GW274150-treated, FIG. 10B): vehicle-treated rabbits that survived displayed significantly more severe ALI, as measured by SpO2/FiO2 ratios, than GW274150-treated rabbits
